Screening data deposited in PubChem by Broad Institute.
E-selectin induc = E-selectin induction in HUVECs, primary screen, imaging, HUVEC, immunofluorescence imaging, single point | P16581 | 260,000 compounds, 0.37% hits | activation, % at 7.58 µM | normalized: neutral wells 0, TNF-alpha wells 100;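 active = mean E-selectin-positive cell signal at least 10% of the positive control, reached in at least 60% of replicates, without over 20% cell loss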
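material = human umbilical vein endothelial cells (HUVEC), E-selectin induction | quantity = 3,000 cells/well | medium = EGM-2 growth medium on 0.1% gelatin-coated wells | technique = immunofluorescence imaging | read-out basis = % PE-positive cells | control set = TNF-alpha positive control, DMSO neutral control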
Statin myotox sup = suppressors of statin myotoxicity in C2C12 myotubes, primary screen, cell-based, single point, plate reader; C2C12 myotubes + simvastatin, ATP luminescence, 48 h; scaled: DMSO 0, geranylgeraniol control 100; rescue of ATP level, % at 7.49 µM; 330,000 compounds, 0.78% hits; AID 602340, 2012;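 active = mean ATP rescue above about 67%, or every replicate alone reaching that limit, limit read from the data, passing the limit was not always enough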;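 note: myotubes were challenged with 10 µM simvastatin during compound exposure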
PglD inh = C. jejuni PglD acetyltransferase inhibitors, primary screen, biochemical, DTNB colorimetric, single point. AID 602405, 2012. UDP-N-acetylbacillosamine N-acetyltransferase PglD (Campylobacter jejuni). 360,000 compounds, 0.098% hits. inhibition, % at 12.5 µM. purified PglD enzyme, DTNB colorimetric CoA detection; in the data active = inhibition above about 16%, passing the limit was not always enough
PGC1a acetyl inh = inhibitors of PGC1a acetylation signal, primary screen, cell-based, U2OS, AlphaScreen, inhibitor mode; AlphaScreen anti-acetyl-lysine; with virally co-expressed GCN5 acetyltransferase; inhibition, % at 15.6 µM; 350,000 compounds, 0.17% hits; AID 651687, 2012;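 active = every replicate shows inhibition of at least 40%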
esBAF inh = Bmi1 luciferase reporter increase in mESCs, primary screen, esBAF inhibitor project, mouse ES cells, Bmi1 luciferase knock-in, single point | 350,000 compounds, 2% hits | 24 h; 100% = twice the neutral-well signal | AID 602393, 2012 | reporter increase, % at 12.5 µM; in the data active = activation above about 40%;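 note: a rise in the Bmi1 reporter signal indicates esBAF inhibition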
UUG fidelity = modulators of start codon recognition fidelity in yeast. activity score, % at 18.7 µM. S. cerevisiae UUG-firefly luciferase reporter, luminescence/redox ratio. 350,000 compounds, 0.13% hits;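 active means replicate mean at a twofold rise or more, about +100% in these data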;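 further: firefly luciferase made from a UUG start codon reports start codon fidelity; reporter light over untreated wells divided by growth signal over untreated wells; some hits fall short of that in this replicate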
Hits are given with their value; 0 = inactive; - = no result. The list is not random: actives were taken first. Their share in the collection is about 2.8%.

SMILES | E-selectin induc | Statin myotox sup | PglD inh | PGC1a acetyl inh | esBAF inh | UUG fidelity
Cc1ccc(NC(=O)CCc2c(C)nn(-c3ccc(N4CCCCC4)nn3)c2C)cc1F | - | 0 | 0 | 0 | 68.6 | 0
Cc1nn(-c2ccc(N3CCCCC3)nn2)c(C)c1CCC(=O)Nc1ccc(F)cc1 | - | 0 | 0 | 0 | 0 | 0
Cc1nn(-c2ccc(N3CCCCC3)nn2)c(C)c1CCC(=O)Nc1cccc(F)c1 | - | 0 | 0 | - | 64.3 | 0
CCC(=O)N1CC2(C1)[C@H](c1ccccc1)[C@@H](CO)N2CCC(F)(F)F | 0 | - | - | 0 | - | -
Cc1ccc(S(=O)(=O)N[C@@H]2CC[C@@H](CC(=O)NCc3ccccc3F)O[C@H]2CO)cc1 | 0 | 0 | 0 | 0 | 0 | 0
O=[N+]([O-])c1ccc(N=Nc2c(O)[nH]c3ccc(F)cc23)cc1 | 0 | 0 | 0 | 0 | 72.8 | 0
CCOC(=O)N1CCN(C(=O)Cn2nc(C)c3sc4ccccc4c3c2=O)CC1 | - | 102.7 | 0 | 0 | 0 | 0
Cc1nn(CC(=O)N2CCN(C)CC2)c(=O)c2c1sc1ccccc12 | - | 0 | 0 | 0 | 0 | 0
CC(=O)N(C)C[C@H]1OCc2ccccc2-c2ccccc2C(=O)N([C@@H](C)CO)C[C@@H]1C | 0 | 0 | 0 | 0 | 0 | -
O=C(CCC1CCN(Cc2ccccc2Cl)CC1)NC1CC1 | 0 | 0 | 0 | 94.6 | 0 | 0
O=C(CCC1CCN(Cc2ccccc2O)CC1)NC1CC1 | - | 0 | 0 | 0 | 0 | 0
O=C(C[C@@H]1CC[C@@H](NC(=O)Nc2ccccc2)[C@H](CO)O1)NCc1ccccn1 | 0 | 0 | 0 | 0 | 0 | 0
CCCC(=O)Nc1ccc2c(c1)C(=O)N(C)[C@H]1CC[C@@H](CC(=O)Nc3cn(C)nc3C)O[C@@H]1CO2 | 0 | 0 | 0 | 0 | 0 | 0
CCOC(=O)/C=C(/C)N1N=C(c2ccc(OC)cc2)CC1c1cccc([N+](=O)[O-])c1 (configuration not stated) | - | 0 | 0 | 0 | 55.2 | 0
COc1ccc(C2=NN(C(=O)c3ccccc3)C(c3cccc([N+](=O)[O-])c3)C2)cc1 (configuration not stated) | 0 | - | - | - | - | -
Cc1ccc(S(=O)(=O)N(C)C[C@H]2Oc3ccc(NC(=O)Cc4ccccc4)cc3C(=O)N([C@H](C)CO)C[C@@H]2C)cc1 | 0 | 0 | 0 | 0 | 0 | 0
COc1ccccc1-c1ccc([C@H]2[C@@H](CO)N(C(=O)NC3CCCCC3)[C@H]2C#N)cc1 | 0 | 0 | 0 | 0 | 59.4 | 0
N#C[C@@H]1[C@@H](c2ccc(-c3cccc(F)c3)cc2)[C@H](CO)N1C(=O)NC1CCCC1 | 0 | 108.2 | 0 | 0 | 0 | 0
COc1ccccc1-c1ccc([C@H]2[C@@H](CO)N(C(=O)NC3CCCC3)[C@H]2C#N)cc1 | 0 | - | - | 0 | - | -
CCCC#Cc1cnc2c(c1)C(=O)N([C@@H](C)CO)C[C@H](C)[C@@H](CN(C)C(=O)Cc1ccncc1)O2 | 0 | 0 | 0 | 0 | 0 | 0
O=C(C[C@H]1C[C@H]2c3cc(NC(=O)C4CCOCC4)ccc3O[C@H]2[C@H](CO)O1)NCc1ccc2c(c1)OCO2 | 0 | 0 | 0 | 0 | 0 | -
CC1CCC(NC(=O)CCN2C(=O)C3C4C=CC(C4)C3C2=O)CC1 (configuration not stated) | 177.1 | 0 | 0 | 0 | 0 | 0
CC1CCC(NC(=O)CCN2C(=O)C3CC=CCC3C2=O)CC1 (configuration not stated) | 0 | 0 | 0 | - | 0 | 0
Cc1cc(C(=O)O)ccc1-c1ccc(/C=C2\SC(=O)N(CC(=O)Nc3ccc4c(c3)OCO4)C2=O)o1 | 0 | 0 | 0 | - | 0 | 0
C#CCN1C(=O)S/C(=C\c2ccc(-c3ccc(C(=O)O)cc3C)o2)C1=O | - | 0 | 0 | 0 | 86.4 | 0
SMILES | E-selectin induc | Statin myotox sup | PglD inh | PGC1a acetyl inh | esBAF inh | UUG fidelity
O=C(C[C@@H]1C[C@@H]2c3cc(NC(=O)C4CCC4)ccc3O[C@@H]2[C@@H](CO)O1)NCC(F)(F)F | 0 | 0 | 0 | 0 | 0 | 0
OC[C@@H]1[C@H](c2ccc(C#CC3CCCC3)cc2)[C@H]2CN(CCC(F)(F)F)CCCCN12 | 0 | 0 | 0 | 80.5 | 0 | 0
C[C@@H]1CN([C@H](C)CO)C(=O)c2cc(C#CC3CC3)cnc2O[C@H]1CN(C)C(=O)C1CCCCC1 | 0 | 0 | - | 0 | - | -
C[C@H](CO)N1C[C@H](C)[C@@H](CN(C)C(=O)Nc2ccc(F)cc2)Oc2ccc(NS(=O)(=O)c3cccs3)cc2CC1=O | 0 | 0 | 0 | 0 | 0 | 0
O=C1CC(SC(=Nc2ccccc2)Nc2ccccc2)C(=O)N1c1cccc2ccccc12 (configuration not stated) | - | 120.2 | 0 | 0 | 0 | 0
O=C(O)c1ccccc1SC1CC(=O)N(c2cccc3ccccc23)C1=O (configuration not stated) | 0 | 0 | 0 | 0 | 0 | 0
O=C(Nc1ccccc1)N1CCCCN2[C@H](CO)[C@H](c3ccc(C4=CCCCC4)cc3)[C@@H]2C1 | 0 | 0 | 0 | 0 | 0 | 0
Cc1cn2c(N)c(C=C3C=C(Cl)C(=O)C(Cl)=C3)c(=O)nc2s1 | 141.9 | - | - | - | - | -
